Assay outcomes (PubChem BioAssay)
HCMV NEC inh: cytomegalovirus nuclear egress complex inhibition | hit rate 0.15% among 190,000 | HTRF UL50-UL53 interaction, normalized percent inhibition | inhibition, % (concentration not given with the values); in the data active = inhibition above about 27%, passing the limit was not always enough
GIV-Gai inh: GIV-Galpha-i interaction inhibition. P08753. Galpha-i3/FITC-GIV peptide fluorescence polarization, 90 min; active compounds read low; scaled: aluminum fluoride 0%, vehicle 100%. percent of control (FP), % (test concentration not listed). 210,000 compounds, 0.42% hits. AID 1224905;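 active = replicate mean at 85% of control or lower, very high polarization wells dropped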;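 also: lower values mean more displacement of the GIV peptide from Galpha-i3; wells of about 15 µL received 100 nL stock; the first replicate is given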
A number is an active result; – = inactive; · = no result; ! = not confirmed by another sample. This is one part of a sample in which hits are shown more often than they occur.

SMILES	HCMV NEC inh	GIV-Gai inh
COC(=O)C1=C(C)N(Cc2ccccc2)C(=O)/C1=C\c1cccc(O)c1	–	–
COC(=O)C1=C(C)N(Cc2ccccc2)C(=O)/C1=C\c1cccc(Cl)c1	·	51
O=S(=O)(NCCn1c(-c2ccc(F)cc2)nc2cccnc21)c1ccc(Br)cc1	–	–
COc1ccc(/C=[N+](\C)[O-])c(OC)c1	–	·
Cc1[nH]n(-c2ccccc2)c(=O)c1/C=N/O	–	–
Cc1[nH]n(-c2ccccc2)c(=O)c1N=O	38	·
Cc1ccc(S(=O)(=O)/C(C#N)=C\c2cn(-c3ccccc3)nc2-c2cc3ccccc3o2)cc1	–	–
Cc1c(C(=O)Nc2ccccc2)sc2nc(-c3cc4ccccc4oc3=O)[nH]c(=O)c12	–	–
Cc1ccc(NC(=O)c2sc3nc(-c4cc5ccccc5oc4=O)[nH]c(=O)c3c2C)c(C)c1	–	25
CC(=O)Oc1ccc2cc(-c3nc4c(s3)CCc3ccccc3-4)c(=O)oc2c1	·	-79
CC(=O)Oc1ccc2cc(-c3nnc(-c4ccccc4)o3)c(=O)oc2c1	–	–
Cc1cccc(NC(=O)N2CCCC2C(=O)O)c1 (centres undefined)	–	–
CCn1cc(C(=O)N2CCN(c3ccc(OC)cc3)CC2)c2cc(OC)c(OC)cc2c1=O	–	–
Cc1ccc2c(c1)CCCN2CC(=O)N(c1ccccc1)C1CCCCC1	–	–
CN(C)CCCNCc1cccn1C	33	–
CN(C)CCCNCc1ccco1	–	–
O=C1c2cccc3c(N4CCCCC4)ccc(c23)C(=O)N1c1ccccn1	–	-29
CC(=O)N(C(C)=O)N1C(=O)c2cccc3c(N4CCOCC4)ccc(c23)C1=O	–	–
COc1ccc2c(c1)CC/C(=C\c1cccn1C)C2=O	–	–
Cn1cccc1/C=C1\CCC/C(=C\c2cccn2C)C1=O	–	-88
Cn1c(=O)n(C)c2cc(NS(=O)(=O)c3ccccc3)c(NCc3ccccc3)cc21	·	–
COc1ccccc1N1CCN(Cc2cccc3ccccc23)CC1	–	–
COc1cc(OC)c(OC)cc1CN1CCN(c2cccc(C)c2C)CC1	73	–
Cc1ccc(S(=O)(=O)n2nc(C)c(S(=O)(=O)N3CCCC(C)C3)c2C)cc1C (centres undefined)	–	–
Cc1cc2nc(NCc3ccc4c(c3)OCO4)c(C(=O)OC(C)C)nc2cc1C	–	76
SMILES	HCMV NEC inh	GIV-Gai inh
CCOC(=O)c1nc(NCc2ccc3c(c2)OCO3)c2ccccc2n1	–	–
CCCCCCC(CC[n+]1c(/C=C/C=C2N(CC)c3cc(Cl)c(Cl)cc3N2CC)n(CC)c2cc(Cl)c(Cl)cc21)S(=O)(=O)[O-] (centres undefined)	·	–
CCCCCN1/C(=C\C=C\c2n(CCCC)c3cc(Cl)c(Cl)cc3[n+]2CCCCC)N(CCCC)c2cc(Cl)c(Cl)cc21	·	-62
O=C1CC(=O)N(Cc2ccco2)C(=O)N1	87	59
O=C1CC(=O)N(Cc2cccs2)C(=O)N1	–	–
O=S(=O)(c1cc(-c2noc(C3CC3)n2)cs1)N1CCN(c2ccccc2F)CC1	·	–
Cc1ccc(C)c(CNc2ccc3[nH]ncc3c2)c1	–	–
COc1ccc(CNc2ccc3cn[nH]c3c2)c(OC)c1C	52	–
CCCCCNc1ncnc2c1nnn2CC	·	–
N#C/C(=C\c1ccc(-c2ccc(F)cc2F)o1)c1nc2ccccc2[nH]1	–	-6.1
N#C/C(=C\c1ccc(-c2ccccc2C(=O)O)o1)c1nc2ccccc2[nH]1	–	–
Cc1ccc(NC2=CC(=O)c3sc(C)nc3C2=O)cc1	103!	·
Cc1ccc(Nc2nnc(C)c(=O)[nH]2)cc1	–	–
O=C(Nn1cnnc1)c1ccccc1CCc1ccccc1	–	–
Nc1cccc(-c2cnco2)c1	–	–
Nc1cccc(-c2ncon2)c1	83	–
Cc1cccc(-c2nc(CN3N=C(N4CCOc5ccc(Cl)cc54)CCC3=O)c(C)o2)c1	·	–
Cc1cc(C)c(S(=O)(=O)N2CCN(Cc3ccc4c(c3)OCO4)CC2)cc1C	–	–
Cc1csc(-c2cc(S(=O)(=O)N3CCN(Cc4ccc5c(c4)OCO5)CC3)c(C)s2)n1	·	-0.1
Cn1c(-c2ccccc2)cc(C=Nc2ccccc2)c1O	·	–
CC(C)N=Cc1cc2n(c1O)-c1ccccc1C2=O	–	-20
Cc1ccccc1-n1nc(-c2cccnc2)cc1C(=O)NN	–	·
COc1ccccc1-c1cc(=O)[nH]c2c1CCCC2	–	–
NC(N)=N/N=C\c1c(Cl)cccc1Cl	–	·
Cc1cc(N2CCCC2)ccc1/C=C/C1=CCN(C)CC1	–	–
C=CCn1c(C)c(/C=C/C2=CCN(C)CC2)c2ccccc21	–	-11
COc1ccc(Cl)cc1NC(=O)C(OC)c1ccccc1 (centres undefined)	–	–
Clc1ccc(-c2noc(-c3ccc(N4CCOCC4)nn3)n2)cc1	–	–
CN1CCc2c(sc3c2C(=O)NC(c2ccc(OC(=O)c4ccc(Cl)cc4)cc2)N3)C1 (centres undefined)	–	–
